{
  "source": "patent US20260375151A1",
  "about": "“KETOREDUCTASE MUTANT AND USE THEREOF” (SOUTH CHINA UNIVERSITY OF TECHNOLOGY, priority 2023, published 2026)",
  "system": "T1, CC(C)C(=O)CC[C@@H](C)[C@H]1CCC2C3C(CC[C@@]21C)[C@@]1(C)CC[C@@H](O)C[C@@H]1C[C@H]3O",
  "T1 construct": "substrate 1a with NADH",
  "experiment": "Enzyme activity assay of purified Y199A/N149L mutant (change in absorbance at 340 nm, NADH)",
  "format": "biochemical, Novosphingobium aromaticivorans",
  "settings": "other: role: substrate, 1 mM NADH, 0.5 μM purified enzyme, 100 mM PBS pH 7.2",
  "protocol": "The collected wet cells were resuspended in a reaction buffer in a ratio of 1 g wet cells to 15 mL of reaction buffer. The cells were lysed by ultrasonication in an ice bath using cycles of turn-on for 1 s and turn-off for 2 s for a total duration of 45 min. The lysate was centrifuged at 12,000 rpm and 4 °C for 15 min, and the supernatant was filtered through a 0.22 μm membrane for subsequent purification. The purification was performed by Ni-NTA affinity chromatography using a 5 mL of pre-packed column. The entire purification system was first equilibrated with an equilibration buffer, and the sample was loaded at a flow rate of 1 mL/min. Unbound impurity proteins were further removed with the equilibration buffer, and gradient elution was performed by using an elution buffer (500 mM NaCl, and 500 mM imidazole). A target protein was eluted at approximately 150 mM imidazole. The target protein was collected, and concentrated and desalted by using an ultrafiltration tube (50 kDa cutoff) to a final volume of 1 mL. A protein solution was aliquoted and stored at −80 °C for further use.\nTherefore, the activity of the mutant was evaluated by monitoring the change in absorbance at 340 nm during the reaction. Specifically, the reaction was performed in a 250 μL reaction system containing 100 mM PBS buffer (pH 7.2), 0.5 μM purified enzyme, 0.5 mM substrate 1a, and 1 mM NADH. The change in absorbance was monitored over 5 min. At the end of the reaction, an equal volume of ethyl acetate was immediately added to extract the product. The extraction was repeated three times, and organic phases were combined and then evaporated under a nitrogen evaporator. The residue was redissolved in an equal volume of methanol. A sample was prepared by filtration through a 0.22 μm membrane, and the formation of product was detected by HPLC.",
  "data": [
    {"substance": "Novosphingobium aromaticivorans ketoreductase (NaKRED) mutant Y199A/N149L (parent SEQ ID NO. 2) (Novosphingobium aromaticivorans DSM 12444; E216K/G141A/I221V/N149L/Y199A)", "values": [
      {"measurement": "Km", "value": "147.0 ± 27.3", "unit": "µM"},
      {"measurement": "kcat", "value": "2.115 ± 0.473", "unit": "s⁻¹"},
      {"measurement": "kcat/Km", "value": 14300, "unit": "M⁻¹ s⁻¹"}
    ]}
  ]
}
